Values quoted from earlier work in patent US8420667B2, “Isoquinolinone derivatives as NK3 antagonists” (H. Lundbeck A/S, priority 2008, dated 2013).

Sequences of proteins named here, by UniProt entry; tags and fusion partners are left off.
UniProt P29371, whole entry: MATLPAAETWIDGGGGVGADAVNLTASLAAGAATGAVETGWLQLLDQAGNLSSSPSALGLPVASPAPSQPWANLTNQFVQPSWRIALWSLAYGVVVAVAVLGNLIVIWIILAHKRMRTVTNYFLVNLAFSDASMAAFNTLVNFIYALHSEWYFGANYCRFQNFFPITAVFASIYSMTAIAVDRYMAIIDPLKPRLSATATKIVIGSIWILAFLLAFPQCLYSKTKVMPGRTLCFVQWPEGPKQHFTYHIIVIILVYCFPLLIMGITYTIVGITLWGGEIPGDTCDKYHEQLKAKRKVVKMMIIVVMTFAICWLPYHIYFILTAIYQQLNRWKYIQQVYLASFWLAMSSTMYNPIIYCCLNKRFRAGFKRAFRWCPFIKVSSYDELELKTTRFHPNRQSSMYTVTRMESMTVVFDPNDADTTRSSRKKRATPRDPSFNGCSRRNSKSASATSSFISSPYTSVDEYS

Biological target: NK3 receptor (Homo sapiens, UniProt P29371)
Conditions: clinical trials; delusions, hallucinations and paranoia; cited from earlier work

SMILES: CC(=O)N(C)C1(c2ccccc2)CCN(CCC[C@]2(c3ccc(Cl)c(Cl)c3)CCCN(C(=O)c3ccccc3)C2)CC1 [Osanetant, osanetant]
- effect versus placebo on positive symptoms of psychosis: superior to placebo
